Literature values in paper PMC3048909 (2011).

Amino acid sequences for entries named in this document (tags omitted).
UniProt P31645, whole entry: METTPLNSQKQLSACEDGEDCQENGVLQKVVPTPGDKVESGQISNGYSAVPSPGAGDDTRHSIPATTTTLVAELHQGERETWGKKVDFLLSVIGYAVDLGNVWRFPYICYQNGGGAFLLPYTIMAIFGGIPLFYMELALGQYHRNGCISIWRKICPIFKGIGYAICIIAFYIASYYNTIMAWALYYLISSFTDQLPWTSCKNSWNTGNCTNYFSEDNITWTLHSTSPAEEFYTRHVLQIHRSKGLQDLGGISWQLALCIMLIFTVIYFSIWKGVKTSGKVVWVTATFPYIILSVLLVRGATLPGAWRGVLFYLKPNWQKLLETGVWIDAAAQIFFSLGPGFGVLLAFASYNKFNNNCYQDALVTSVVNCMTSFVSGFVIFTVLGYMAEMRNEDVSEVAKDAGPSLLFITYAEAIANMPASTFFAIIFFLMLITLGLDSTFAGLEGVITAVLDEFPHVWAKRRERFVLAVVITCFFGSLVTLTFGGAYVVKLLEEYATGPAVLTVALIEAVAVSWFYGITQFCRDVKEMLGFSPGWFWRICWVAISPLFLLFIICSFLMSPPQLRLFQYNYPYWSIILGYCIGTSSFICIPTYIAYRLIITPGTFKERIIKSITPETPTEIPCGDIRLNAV

Target: human SERT (Homo sapiens, UniProt P31645)
Conditions: cited from earlier work

| SMILES | Monoamine Uptake Inhibition IC50 [3H]5HT |
| --- | --- |
| C[C@@H]1NC(C)(C)CO[C@@]1(O)c1cccc(Cl)c1 [(S,S)-4a, (S,S)-2-(3'-chlorophenyl)-3,5,5-trimethylmorpholine-2-ol] | inactive |
| C[C@H]1NC(C)(C)CO[C@]1(O)c1cccc(Cl)c1 [(R,R)-4a, (R,R)-2-(3'-chlorophenyl)-3,5,5-trimethylmorpholine-2-ol] | inactive |
